According to ChEMBL document CHEMBL4330064, “Phytoestrogens and their synthetic analogues as substrate mimic inhibitors of CYP1B1” (Eur J Med Chem, 2019):

Biological target: T1, Cytochrome P450 1B1 (Homo sapiens, UniProt Q16678)
T1 sequence (Q16678 whole entry): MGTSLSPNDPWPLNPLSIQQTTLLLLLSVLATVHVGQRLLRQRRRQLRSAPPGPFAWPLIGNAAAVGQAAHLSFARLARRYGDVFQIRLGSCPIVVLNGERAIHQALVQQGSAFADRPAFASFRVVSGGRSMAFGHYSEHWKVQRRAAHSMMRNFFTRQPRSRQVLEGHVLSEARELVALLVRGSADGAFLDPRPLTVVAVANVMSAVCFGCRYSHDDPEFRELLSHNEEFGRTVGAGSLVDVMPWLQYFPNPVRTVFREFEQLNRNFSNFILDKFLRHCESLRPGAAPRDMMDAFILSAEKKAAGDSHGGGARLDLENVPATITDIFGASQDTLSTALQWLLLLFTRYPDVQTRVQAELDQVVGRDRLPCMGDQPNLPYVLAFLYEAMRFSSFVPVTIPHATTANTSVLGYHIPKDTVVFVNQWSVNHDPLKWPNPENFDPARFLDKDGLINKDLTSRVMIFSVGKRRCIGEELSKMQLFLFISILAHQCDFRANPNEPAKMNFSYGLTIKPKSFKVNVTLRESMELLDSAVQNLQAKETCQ
Assay: Inhibition of human CYP1B1 using ethoxyresorufin as substrate preincubated for 3 mins followed by NADPH addition measured after 10 mins by EROD assay

Question: Which Ki does the source give for `COc1cc(/C=C/c2ccc(OC)cc2OC)cc(OC)c1` here?
Answer: 3 nM
